## Ab-14 light chain CDR variants: yeast mating affinities

The target is the same throughout: PDVDLGDISGINAS, from the HR2 region of SARS-CoV-2 spike.

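These sequences belong to a second round, designed from the earlier measurements on random variants of the parent. Their group label is 14L_En_HC (En: ensemble of fine-tuned language models; HC: hill climbing; a sequence that several methods proposed may carry one label only). The assay is AlphaSeq: two haploid yeast populations carry antibody and antigen on their surface. The frequency of each diploid, read from paired DNA barcodes, reflects how well the two displayed proteins bind. Each replicate has its own calibration line, from reference interactions of the BCL2 family. Mating was done six times.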

Each scFv is VH, a (GGGGS)3 linker, VL, as in the parent Ab-14, and differs from it in the CDRs of the light chain only.
VH: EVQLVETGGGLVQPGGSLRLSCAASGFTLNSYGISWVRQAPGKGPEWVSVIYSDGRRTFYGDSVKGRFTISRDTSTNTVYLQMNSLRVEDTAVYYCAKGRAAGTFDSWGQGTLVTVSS
VL: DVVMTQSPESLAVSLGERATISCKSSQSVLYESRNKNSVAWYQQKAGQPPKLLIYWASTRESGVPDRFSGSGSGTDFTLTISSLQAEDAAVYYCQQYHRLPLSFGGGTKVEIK

Variants are written as CDR1, CDR2 and CDR3 of the light chain (limits as in the source). Parent: KSSQSVLYESRNKNSVA, WASTRES, QQYHRLPLS.
Values are log10 of the apparent Kd in nM; lower means stronger binding.
Where no diploid with the target was found in that replicate, the entry reads "ND": below detection, most likely a poor binder, though not proof of it.
The authors' rule: three or more of the six replicates give a measured affinity, fewer mean a poor binder.

CDR-L1	CDR-L2	CDR-L3	replicates, log10 nM	signal with controls
KLSFSHQVESINKSNVA	EMVTRES	QQYDRLPLS	1.19 0.83 0.70 0.73 0.95 0.76	1 of 18 (1.39)
TISQMLLMQTGHKNSVA	GEETRYN	QQYHHLPLS	0.24 0.30 0.33 0.47 0.30 0.86	0 of 18
KISQLVNFEGKNKNSVA	QMSTREE	QQYDRLPLS	0.43 0.17 0.21 0.30 0.24 0.34	1 of 18 (2.58)
KLSQSVRMESFNKNSVA	ENSTREA	QDYHRLPLS	ND 2.23 2.70 ND 2.28 3.73	2 of 18 (3.57)
KLSMSMLMESRHKNSVA	ENSTREA	QHYHRLPLS	2.02 ND ND ND 2.41 2.54	2 of 18 (2.07)
NFPQEVMYESHFKNNVA	QTSTRES	QQYDHLPLS	0.18 0.05 0.13 -0.19 0.00 0.06	1 of 18 (3.27)
KLGQMTAIESRNLNSVA	QMDTREK	QQYDRLPLS	1.06 0.63 0.40 0.31 0.49 1.42	0 of 18
SIYDATGMESRNRNPIA	DVSTRPS	QQYDRLPLS	0.24 0.02 0.09 0.24 0.03 0.47	3 of 18 (2.47)
LISGVWDIGSRNYNSVA	QTSTRES	QQYDRLPLE	1.11 0.77 1.37 1.18 0.55 1.15	0 of 18
NFSQMVSTGMTLRNSVA	HASMRFN	QQYHRLPLI	2.93 2.97 2.33 1.94 2.27 3.13	1 of 18 (1.81)
KLRQVTGYEMYNKNSVA	QTSTRVS	QDYHRLPLS	1.21 1.10 1.11 1.17 0.99 0.96	2 of 18 (3.08)
KIMQSLNYESFNKNSVA	GQQTRER	QSYHRLPLS	1.70 1.47 1.39 1.53 1.48 1.63	3 of 18 (2.91)
NFSQMVLTGQTLRNSVA	HASTRFE	QQYHRLPLI	1.22 1.53 1.14 1.61 1.00 1.58	0 of 18
IISGSYLMESRNKNSVA	NAETREY	QHYDRLPLS	ND ND ND 2.59 2.29 2.36	0 of 18
MLLQSTMYGQRNRNSVA	HASTRED	QQYHRLPLI	1.76 1.22 1.28 1.65 1.43 1.16	2 of 18 (3.00)
MISDLTMYGSRAKNSVA	DLSTRGS	QQYHRLPLS	0.12 0.35 -0.09 0.17 -0.08 0.36	1 of 18 (4.88)
KIGGVTNGISRNKNSVA	EQSTREN	QQYNRLPLS	0.45 0.23 0.06 0.00 0.15 0.38	0 of 18
TLTQVQGMESHNANSVA	DLSTRGS	QQYHRLPLS	0.31 0.25 0.12 0.38 0.10 0.37	1 of 18 (2.92)
TIGQSVHETSRVKNSVA	HASTRED	QQYDRLPLS	0.58 0.40 0.41 0.21 0.41 0.51	1 of 18 (3.06)
IISQSMLYQSATHNSIA	QTSTREE	QQYHHLPLS	0.38 0.34 0.10 0.19 0.00 -0.03	0 of 18
KISSATTFESRNKNSVA	ENSTRES	QSYHRLPLS	ND ND ND ND ND ND	0 of 18
KFGQSVLMGSYVRNSVA	QSQTREN	QQYDRLPLS	ND 1.83 2.67 1.44 1.36 2.14	1 of 18 (1.52)
KISSLTLYESVEKNNVA	EMSTRPS	QSYHRLPLS	0.88 1.51 0.72 1.04 0.96 1.07	1 of 18 (3.38)
NFSQMVSSGMTLRNSVA	HASTRFN	QQYHRLPLI	ND 1.46 ND 2.31 ND 1.43	1 of 18 (1.43)
KISGMYGKESKNKNSVA	EMVNRES	QQYDRLPLS	0.00 0.37 -0.02 0.67 0.20 1.01	0 of 18
MISGSVMSESRLNNSVA	QTTTRES	QQYDRLPLS	1.67 0.86 1.28 ND 2.41 1.50	1 of 18 (3.69)
NFSQMVLVGSTLKNSVA	HASTREE	QQYHRLPLI	0.32 -0.01 0.18 1.07 0.63 0.54	1 of 18 (2.27)
ALSQSMDMTSRNKNSVA	DLSTRTN	QQYHRLPLS	0.15 -0.07 0.11 -0.05 -0.06 0.18	0 of 18
KISMYLNKESKNKNSVA	EMVNRES	QQYDRLPLS	0.91 0.66 0.41 0.76 0.52 0.89	0 of 18
KYSQNVLIMGRNKNNVA	EMTTREE	QQYDRLPLS	0.15 0.22 0.02 -0.13 -0.03 0.28	0 of 18

The 2 strongest on average among those seen in every replicate, once more:

CDR-L1	CDR-L2	CDR-L3	replicates, log10 nM	signal with controls
NFPQEVMYESHFKNNVA	QTSTRES	QQYDHLPLS	0.18 0.05 0.13 -0.19 0.00 0.06	1 of 18 (3.27)
ALSQSMDMTSRNKNSVA	DLSTRTN	QQYHRLPLS	0.15 -0.07 0.11 -0.05 -0.06 0.18	0 of 18

Three control strains display no target. For all light chain designs, 4% of the pairings with them gave a signal, with a median of 2.64 and one signal in twenty below 1.59, so weak values seen in few replicates may be background. For each scFv, signals with the empty controls are counted beside the result, with their mean in brackets.
A sequence measured in both rounds can read differently, since the two assays cover different ranges.

Values reported by Li et al. 2023, doi:10.1038/s41467-023-39022-2 (FLAb copy).